The assay has as its system H. pylori contemporary clinical isolates. In words: MIC against contemporary clinical isolates. In kind it is cell-based, Helicobacter pylori. As to conditions: H. pylori isolates USA (N = 200).

`Cc1ncc([N+](=O)[O-])n1CCO` [metronidazole, reference compound] gave an MIC range of 0.25 to 256 µg/mL.
